Holding throughout (test): ELISA
Experiment [1] addresses KKD-m3.
In experiment [2] the target is KKD-m8.
Experiment [3] deals with KKD(6X)-m1.
The target in experiment [4] is KKD(6X)-m5.
Experiment [5] addresses KKD(6X)-m4.
Experiment [6] concerns the target KKD(6X)-m3.

B1: Keap1 Kelch Domain (KKD) (other)
chain: APKVGRLIYTAGGYFRQSLSYLEAYNPSDGTWLRLADLQVPRSGLAGCVVGGLLYAVGGRNNSPDGNTDSSALDCYNPMTNQWSPCAPMSVPRNRIGVGVIDGHIYAVGGSHGCIHHNSVERYEPERDEWHLVAPMLTRRIGVGVAVLNRLLYAVGGFDGTNRLNSAECYYPERNEWRMITAMNTIRSGAGVCVLHNCIYAAGGYDGQDQLNSVERYDVETETWTFVAPMKHRRSALGITVHQGRIYVLGGYDGHTFLDSVECYDPDTDTWSEVTRMTSGRSGVGVAVT
As a reminder, the Kd is the constant that tells how readily two partners part at equilibrium. As for B1, the Kd in experiment [1] was 425 nM; in experiment [2], > 5000 nM; in experiment [3], 43 nM; in experiment [4], 6700 nM; in experiment [5], 4020 nM; in experiment [6], 1810 nM.

Source of the values: patent US20200299675A1 (published 2020).
